# Binding of CDR-mutated scFvs to a peptide of the spike HR2 region

Target: peptide PDVDLGDISGINAS, taken from heptad repeat 2 (HR2) of SARS-CoV-2 spike.

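The starting antibody came from a phage panning campaign against this peptide. The variants were designed computationally from a first round of random CDR variants and then made and measured. Several design methods are mixed in this list. AlphaSeq pools MATa yeast showing the antibodies with MATalpha yeast showing the peptide. The frequency of each diploid, read from paired DNA barcodes, reflects how well the two displayed proteins bind. Each replicate has its own calibration line, from reference interactions of the BCL2 family. Mating was done six times.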

Each scFv is VH, the linker GGGGSGGGGSGGGGS, VL, as in the parent Ab-14, and differs from it in the CDRs of the light chain only.
VH: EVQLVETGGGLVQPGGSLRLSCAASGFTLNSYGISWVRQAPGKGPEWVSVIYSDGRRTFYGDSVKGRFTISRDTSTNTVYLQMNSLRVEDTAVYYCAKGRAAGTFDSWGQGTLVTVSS
VL: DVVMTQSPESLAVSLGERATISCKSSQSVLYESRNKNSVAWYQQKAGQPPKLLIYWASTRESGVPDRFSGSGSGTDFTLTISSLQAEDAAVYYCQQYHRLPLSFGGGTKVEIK

Sequences are complete VL domains.
This list holds designs with more than six substitutions.
Each Kd is an estimate from the mating assay, the geometric mean of the replicates in which the pair was seen; lower is stronger.
Where no diploid with the target was found in any replicate, the entry reads "nd": below detection, most likely a poor binder, though not proof of it.
The parent sequence was in this pool as ten entries: three were never detected, three once, and four in most replicates, with averages from 2.2 nM to 240 nM.
The range of this assay differs from that of the first round, and the authors advise against merging the two.
Empty control strains, which show no peptide, gave a signal in 4% of pairings with all light chain designs; the median was 430 nM and 95% of these signals were weaker than 38 nM. No background was subtracted. For each scFv, signals with the empty controls are counted beside the result.
In the paper, a design with two or fewer of six values counts as a poor binder.

With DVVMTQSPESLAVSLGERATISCKIGAVTNGISRNKNSVAWYQQKAGQPPKLLIYEQSTREDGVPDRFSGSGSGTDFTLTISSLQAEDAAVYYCQQYNRLPLSFGGGTKVEIK the result was 4.7 nM (4 of 6 replicates; controls 0 of 18).
With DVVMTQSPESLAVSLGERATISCQFESLEEEGYQYSNNIAWYQQKAGQPPKLLIYGGEQRFSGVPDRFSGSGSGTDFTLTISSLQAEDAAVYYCQQYVKLPLVFGGGTKVEIK the result was 4.9 nM (6 of 6 replicates; controls 2 of 18).
With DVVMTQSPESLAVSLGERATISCTISQMTSLFSQTINNVAWYQQKAGQPPKLLIYEVSTREQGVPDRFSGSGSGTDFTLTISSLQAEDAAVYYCQQYDRLPLVFGGGTKVEIK the result was 6.8 nM (6 of 6 replicates; controls 0 of 18).
With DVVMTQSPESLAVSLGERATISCKAQQSNEYESRNKWSVAWYQQKAGQPPKLLIYNASQREDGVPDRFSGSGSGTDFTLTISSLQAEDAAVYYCQQYHRLPLSFGGGTKVEIK the result was 2.0 nM (6 of 6 replicates; controls 0 of 18).
With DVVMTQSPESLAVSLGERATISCKLLQNTGAGYRWAQNVAWYQQKAGQPPKLLIYHMSTREDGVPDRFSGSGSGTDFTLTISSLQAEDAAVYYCQQYHRLPFVFGGGTKVEIK the result was 2.9 nM (6 of 6 replicates; controls 0 of 18).
With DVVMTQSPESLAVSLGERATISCKFSQSDLYEDRAKNSVAWYQQKAGQPPKLLIYNASTRLWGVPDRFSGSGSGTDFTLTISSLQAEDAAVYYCQQYHRLPLSFGGGTKVEIK the result was 1.0 nM (6 of 6 replicates; controls 0 of 18).
With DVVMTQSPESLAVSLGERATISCIVSQLMLWGYHAKNSIAWYQQKAGQPPKLLIYEAEMRLNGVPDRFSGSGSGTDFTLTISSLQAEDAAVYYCQQYHRLPLFFGGGTKVEIK the result was nd (0 of 6 replicates; controls 0 of 18).
With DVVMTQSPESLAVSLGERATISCTISQITSSFSQNINNVAWYQQKAGQPPKLLIYEVSTRLNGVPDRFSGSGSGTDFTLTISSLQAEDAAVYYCQQYDRLPLSFGGGTKVEIK the result was 3.5 nM (6 of 6 replicates; controls 0 of 18).
With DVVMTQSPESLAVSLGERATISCMLDMAELGYSQLSSSVAWYQQKAGQPPKLLIYGSANKCQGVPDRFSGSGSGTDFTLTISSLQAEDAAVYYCQQYFRLPLSFGGGTKVEIK the result was 2.0 nM (6 of 6 replicates; controls 1 of 18).
With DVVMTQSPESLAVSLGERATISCKLDMYDWLESRNKNSVAWYQQKAGQPPKLLIYQASQREWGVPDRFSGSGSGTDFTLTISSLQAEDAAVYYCQQYHRLPLSFGGGTKVEIK the result was 1.3 nM (6 of 6 replicates; controls 3 of 18).
With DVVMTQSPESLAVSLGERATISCHMSMITLQGMRARNSVAWYQQKAGQPPKLLIYQMTTRENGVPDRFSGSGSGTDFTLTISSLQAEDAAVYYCQQYDRLPLSFGGGTKVEIK the result was 7.6 nM (6 of 6 replicates; controls 2 of 18).
With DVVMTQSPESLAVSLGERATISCTIGMFMDNLMSNRNNVAWYQQKAGQPPKLLIYDTSTLGDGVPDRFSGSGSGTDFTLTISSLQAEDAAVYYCQSYDRLPLSFGGGTKVEIK the result was 46 nM (6 of 6 replicates; controls 0 of 18).
With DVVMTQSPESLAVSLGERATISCQLEVFPLQGGSTTQSIAWYQQKAGQPPKLLIYDASHRTPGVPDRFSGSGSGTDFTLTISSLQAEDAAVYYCQQYSRLPLVFGGGTKVEIK the result was 380 pM (6 of 6 replicates; controls 0 of 18).
With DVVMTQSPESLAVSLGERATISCKVEQGVDDLSRNDNSVAWYQQKAGQPPKLLIYWASTRESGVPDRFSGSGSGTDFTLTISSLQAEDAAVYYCQQYHRLPLSFGGGTKVEIK the result was 13 nM (6 of 6 replicates; controls 3 of 18).
With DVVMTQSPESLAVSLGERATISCHMSQVTMYGMWMRNSVAWYQQKAGQPPKLLIYQTSTRESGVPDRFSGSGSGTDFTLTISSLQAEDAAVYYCQQYDRLPLSFGGGTKVEIK the result was 10 nM (6 of 6 replicates; controls 0 of 18).

A selection of 2 entries from above:

| VL | Kd | detected | empty controls |
|---|---|---|---|
| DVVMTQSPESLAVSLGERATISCTIGMFMDNLMSNRNNVAWYQQKAGQPPKLLIYDTSTLGDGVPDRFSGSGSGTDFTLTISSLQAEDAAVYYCQSYDRLPLSFGGGTKVEIK | 46 nM | 6/6 | 0/18 |
| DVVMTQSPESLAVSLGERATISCHMSQVTMYGMWMRNSVAWYQQKAGQPPKLLIYQTSTRESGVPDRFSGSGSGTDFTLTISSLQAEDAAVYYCQQYDRLPLSFGGGTKVEIK | 10 nM | 6/6 | 0/18 |

The measurements come from Li et al. 2023 (doi:10.1038/s41467-023-39022-2) through the FLAb antibody collection.